Assay results taken from patent US20220089743A1 (Chugai, published 2022).

Experiments:
[1] = target: HLA-DQ2.5 on IHW09023 cells loaded with 33 mer gliadin peptide (human; wheat); experiment: cell-based or functional assay
[2] = target: HLA-DQ2.5 on IHW09023 cells loaded with omega1/2 gliadin peptide (human; wheat); experiment: cell-based or functional assay

Binder	IC50, α1a gliadin TCR, 250 nM 33mer gliadin [1] [ng/mL]	IC50, ω2 gliadin TCR, 250 nM ω1/2 gliadin [2] [ng/mL]
DQN0344H0976/L0591//DQN0385H1270/L0681-F6 (bispecific antibody) heavy 1: QVQLVESGGGVVQPGGSLRLSCAASGFTFSSAYWMVWVRQAPGQGLEWMGAVYGGSDTTYYAKWTEGRFTISRDTSKNTLYLQMNSLRAEDTAVYYCAREPLNYYYYGELNLWGQGTLVTVSSASTKGPSVFPLAPSSKSTSGGTAALGCLVKDYFPEPVTVSWNSGALTSGVHTFPAVLKSSGLYSLSSVVTVPSSSLGTQTYICNVNHKPSNTKVDKRVEPKSCDKTHTCPPCPAPELRRGPSVFLFPPKPKDTLMISRTPEVTCVVVDVSHEDPEVKFNWYVDGVEVHNAKTKPREEQYNSTYRVVSVLTVLHQDWLNGKEYKCKVSNKALPAPIEKTISKAKGQPREPQVYTLPPSREEMTKNQVSLTCLVKGFYPSDIAVEWESNGQPENNYKTTPPYLDSDGSFFLYSKLTVDKSRWQEGNVFSCSVLHEALHAHYTREELSLSP light 1: DIQMTQSPSSLSASVGDRVTITCQATEEIYSGLAWYQQKPGKAPKLLIYYVSTLYEGIPARFSGSGSGTDFTLTISSLEPEDFAVYYCQTYEDVSAVTFGQGTKVEIKRTVAAPSVFIFPPSDEQLKSGTAEVVCLLNNFYPREAKVQWKVDNALQSGNSEESVTEQDSKDSTYSLSSTLTLSKADYEKHKVYACEVTHQGLSSPVTKSFNRGEC heavy 2: QVQLVESGGGVVQPGRSLRLSCAASGFTFSEWYFMSWVRQAPGKGLEWVASIDTGSGSIDYAEWVEGRFTISRDNSKNTLYLQMNSLRAEDTAVYYCARDIGIDYNFWGPGTLVTVSSASTKGPSVFPLAPSSKSTSGGTAALGCLVEDYFPEPVTVSWNSGALTSGVHTFPAVLESSGLYSLSSVVTVPSSSLGTKTYICNVNHKPSNTKVDKRVEPKSCDKTHTCPPCPAPELRRGPSVFLFPPKPKDTLMISRTPEVTCVVVDVSHEDPEVKFNWYVDGVEVHNAKTKPREEQYNSTYRVVSVLTVLHQDWLNGKEYKCKVSNKALPAPIEKTISKAKGQPREPQVYTLPPSRKEMTKNQVSLTCLVKGFYPSDIAVEWESNGQPENNYKTTPPYLDSDGSFFLYSKLTVDKSRWQQGNVFSCSVLHEALHAHYTRKELSLSP light 2: DIQMTQSPSSLSASVGDRVTITCQTTQSISSYLNWYQQKPGQPPKLLIYYASTKAEGIPARFSGSGLGTDFTLTISSLEPEDFAVYYCHYGISKVSFGQGTKVEIKRTVAAPSVFIFPPSDEQLKSGTAKVVCLLNNFYPREAKVQWKVDNALQSGNSKESVTEQDSKDSTYSLSSTLTLSKADYEKHKVYACEVTHQGLSSPVTKSFNRGEC	0.58	
DQN0344H1013/L0620//DQN0385H1521/L0605-F6 (bispecific antibody) heavy 1: QVQLVESGGGVVQPGRSLRLSCAASGFTFSSAYWMVWVRQAPGQGLEWMGAVYGGSDTTYYAKWTEGRFTISRDTSKNTLYLQMNSLRAEDTAVYYCAREPLNYYYYGELNVWGQGTLVTVSSASTKGPSVFPLAPSSKSTSGGTAALGCLVKDYFPEPVTVSWNSGALTSGVHTFPAVLKSSGLYSLSSVVTVPSSSLGTQTYICNVNHKPSNTKVDKRVEPKSCDKTHTCPPCPAPELRRGPSVFLFPPKPKDTLMISRTPEVTCVVVDVSHEDPEVKFNWYVDGVEVHNAKTKPREEQYNSTYRVVSVLTVLHQDWLNGKEYKCKVSNKALPAPIEKTISKAKGQPREPQVYTLPPSREEMTKNQVSLTCLVKGFYPSDIAVEWESNGQPENNYKTTPPYLDSDGSFFLYSKLTVDKSRWQEGNVFSCSVLHEALHAHYTREELSLSP light 1: DIQMTQSPSSLSASVGDRVTITCQATENIYSGLAWYQQKPGKAPKLLIYYVSTLAYGIPARFSGSGSGTDFTLTISSLEPEDFAVYYCQTYEDVSAVTFGQGTKVEIKRTVAAPSVFIFPPSDEQLKSGTAEVVCLLNNFYPREAKVQWKVDNALQSGNSEESVTEQDSKDSTYSLSSTLTLSKADYEKHKVYACEVTHQGLSSPVTKSFNRGEC heavy 2: QVQLVESGGGVVQPGRSLRLSCAASGFTFESWYFMSWVRQAPGKGLEWVASIDTGSGSIDYAEWVEGRFTISRDNSKNTLYLQMNSLRAEDTAVYYCARDIGIDYNFWGPGTLVTVSSASTKGPSVFPLAPSSKSTSGGTAALGCLVEDYFPEPVTVSWNSGALTSGVHTFPAVLESSGLYSLSSVVTVPSSSLGTKTYICNVNHKPSNTKVDKRVEPKSCDKTHTCPPCPAPELRRGPSVFLFPPKPKDTLMISRTPEVTCVVVDVSHEDPEVKFNWYVDGVEVHNAKTKPREEQYNSTYRVVSVLTVLHQDWLNGKEYKCKVSNKALPAPIEKTISKAKGQPREPQVYTLPPSRKEMTKNQVSLTCLVKGFYPSDIAVEWESNGQPENNYKTTPPYLDSDGSFFLYSKLTVDKSRWQQGNVFSCSVLHEALHAHYTRKELSLSP light 2: DIQMTQSPSSLSASVGDRVTITCQTTQSISSYLNWYQQKPGQPPKLLIYYASTKAEGIPARFSGSGSGTDFTLTISSLEPEDFAVYYCHYGISKVSFGQGTKVEIKRTVAAPSVFIFPPSDEQLKSGTAKVVCLLNNFYPREAKVQWKVDNALQSGNSKESVTEQDSKDSTYSLSSTLTLSKADYEKHKVYACEVTHQGLSSPVTKSFNRGEC		0.19
